The target in assay [1] is T1, GFP-tagged human S1P1 receptor (S1P1-GFP) (Homo sapiens (Human), UniProt P21453). The experiment in a line: Microscopy imaging of ligand-mediated S1P1-GFP internalization in HEK-293 cells. The conditions noted are these: HEK 293-S1P1-GFP cells.
Assay [2] addresses T1, GFP-tagged human S1P1 receptor (S1P1-GFP). The experiment in a line: Immunoprecipitation/immunoblotting for ligand-stimulated S1P1-GFP polyubiquitination in HEK-293 cells. The conditions noted are these: HEK 293-S1P1-GFP cells. Background: A western blot detects proteins with antibodies after separation by electrophoresis.

Chains of the proteins cited; added tags and fusions are not shown.
UniProt P21453, whole entry: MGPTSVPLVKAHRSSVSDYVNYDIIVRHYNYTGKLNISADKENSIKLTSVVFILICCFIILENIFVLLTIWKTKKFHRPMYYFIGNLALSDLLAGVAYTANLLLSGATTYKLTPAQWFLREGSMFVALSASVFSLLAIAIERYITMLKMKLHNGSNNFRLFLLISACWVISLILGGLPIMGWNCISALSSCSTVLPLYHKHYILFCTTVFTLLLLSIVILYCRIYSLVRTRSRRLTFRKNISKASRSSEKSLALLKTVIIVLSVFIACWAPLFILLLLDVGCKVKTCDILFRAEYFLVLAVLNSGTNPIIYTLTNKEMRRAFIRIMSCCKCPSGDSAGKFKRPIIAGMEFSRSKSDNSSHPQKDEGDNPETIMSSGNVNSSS

The structures appear in SMILES notation.

Consider `CCOc1ccc(-c2nc(-c3ccncc3C)no2)cc1OCC`, for which the S1P1-GFP internalization result in assay [1] was “robustly induces internalization”. In assay [2], the S1P1 polyubiquination result is “robustly induces internalization and polyubiquination”.

Values taken from patent US10544136B2, “Modulators of sphingosine phosphate receptors” (The Scripps Research Institute, priority 2008, dated 2020).
